Shown are actives, neighbours in structure and some others; about 3.7% of the full set was active somewhere.
Nrf2 ARE act – activates Nrf2 signaling; 0.31% of 410,000 active; AID 624171; AREc32 ARE-luciferase reporter (MCF7-derived line), luminescence, 24 h; Potency, µM (titrated, usually from 46.1 µM), inactives show at the top dose activation, hits mostly activators; note: potency is the fitted concentration of half-maximal effect; % of control where 0% means no effect; nearly all actives have a fitted effect of over 65% in size
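Quantitative high-throughput format: AREc32 reporter cells, 1000 per well, received compound by pin transfer and were incubated 24 hr at 37 deg C, 5% CO2, before Steady-Glo luminescence detection.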
Nrf2 block – Nrf2 pathway inhibition. A549 ARE-Fluc reporter, luciferase luminescence, 18-24 h. Potency, µM (highest dose often 46 µM), without a hit: top-dose activity change, negative = inhibition, actives largely listed as inhibitors. 2.1% of 360,000 active; note: potency is the fitted concentration of half-maximal effect; % is set by controls: 0 for no effect and ±100 for the full control effect; nearly all actives have a fitted effect of over 60% in size
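Reporter: ARE-Fluc in A549. Exposure: 18-24 h, 37 °C, 5% CO2, 5% FBS OPTI-MEM. Readouts: fluorescent cytotoxicity (CellTiter-Fluor), then luminescent Nrf2 signal after BugLite.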
TCR activator – activates T cell receptor signaling; primary human leukocytes, anti-CD3, IL-2 HTRF, 48 h; Potency, µM (doses to about 9.22 µM), for the others: top-dose activation of IL-2 secretion, usual class: activators; 330,000 tested, under 10 active; AID 504894; note: % of control where 0% means no effect
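48 hr co-incubation of compounds, a-CD3 beads and primary human leukocytes; IL-2 quantified homogeneously by HTRF with anti-IL-2 K and d2 conjugates.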
A549 viability – kills or reduces viability of A549 cells in Nrf2 counter-screen; A549 ARE-Fluc cells, CellTiter-Fluor viability, 18-24 h; Potency, µM (doses to about 46 µM), for inactives: top-dose activity change, negative = cytotoxicity, actives largely listed as inhibitors; 0.16% of 390,000 active; note: potency is the fitted concentration of half-maximal effect; % is set by controls: 0 for no effect and ±100 for the full control effect
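A549 ARE-Fluc cells in 5% FBS OPTI-MEM, 5000 cells/well, rested 2 h then exposed to compounds in concentration-response for 18-24 h at 37 °C. Viability by CellTiter-Fluor fluorescence (Ex 405/Em 525) after 30 min; luciferase luminescence (BugLite, 15 min, RT) read afterwards.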
miR-21 FLuc – raises the signal of a miR-21 reporter | AID 2288 | 340,000 tested, under 10 active | Potency, µM (series often up to 38.3 µM), without a hit: at the highest dose reporter change, positive = more light | HeLa miR-21 FLuc reporter, luciferase, 48 h; active = well fitted rising curve with a large enough effect; inconclusive = small, poorly fitted or top-dose-only effect; inactive = no such curve, though single readings can be large or run the other way;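 further: % of control where 0% means no effect; miR-21 action dims this reporter so a rising signal means less miR-21 action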
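Using DMEM plus 10% FBS, HeLa miR-21-FLuc cells are incubated with test compounds (final up to about 40uM) for 48 hours; firefly luciferase signal is then imaged following reagent-mediated lysis.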
ClpP mod – qHTS Assay for Activators of ClpP; ATP-dependent Clp protease proteolytic subunit (Bacillus subtilis (strain 168)), P80244; Potency, µM (highest dose often 57.5 µM), without a hit: top-dose activity change, negative = active; 1.9% of 340,000 active; purified B. subtilis ClpP, FRET peptide cleavage, 20 min; AID 651965, 2013; active = well fitted falling curve with a large enough effect; inconclusive = small, poorly fitted or top-dose-only effect; inactive = no such curve, though single readings can be large or run the other way; note: potency is the fitted concentration of half-maximal effect; the source files actives as falling curves though it sought activators and does not explain the sign; nearly all actives have a fitted effect of over 65% in size
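FRET quenching reversal measured ClpP activation: 10 microg/mL B. subtilis ClpP at pH 8 with the FRET-FV decapeptide, read at 430 nm after 320 nm excitation. The 20-min minus 0-min signal was scaled between DMSO/no-enzyme wells and ADEP (5.8 microM final).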
* marks the source's active call; other numbers are inactive results; ? = inconclusive; . = not tested or not shown; [ ] = remark or other dose. Unless noted, calls come from the whole dose curve; as a rule, active = well fitted curve in the direction sought with a large enough effect; inconclusive = small, poorly fitted or top-dose-only effect, or another doubt; inactive = no such curve, though single readings can be large; an effect the other way counts as inactive or inconclusive.

[1] COc1cc(NC(=S)Nc2cccc(Cl)c2Cl)c(OC)cc1Cl
[2] COc1cc(OC)c(NC(=S)Nc2cccc(C(C)=O)c2)cc1Cl
[3] O=C(Nc1ccccn1)c1ccc(Br)s1
[4] COc1ccccc1C(=O)Nc1ccccn1
[5] CC1CCCN(c2nc3c(-c4ccc(Cl)cc4)nnn3c3ccccc23)C1 (configuration not stated)
[6] O=c1cc(-c2ccccc2)n2c(SCc3c(F)cccc3Cl)nnc2[nH]1
[7] CCOC(=O)c1ccc(-n2c(-c3ccc(C)cc3)c(C)n3c4c(=O)n(C)c(=O)n(C)c4nc23)cc1
[8] FC(F)(F)Oc1ccc(NC(=S)Nc2ccccc2N2CCOCC2)cc1
Assay by compound | 1 | 2 | 3 | 4 | 5 | 6 | 7 | 8
Nrf2 ARE act | 0% | 4% | 16µM* | 11µM* | -1% | -1% | -1% | 2%
Nrf2 block | -1% | -17% | ? | . | 10% | . | -2% | 14%
TCR activator | -5% | 3% | . | -2% | . | . | . | -3%
A549 viability | 1% | 5% | -6% | 11% | 4% | 11% | 7% | 4%
miR-21 FLuc | -10% | -7% | -35% | -37% | -3% | -6% | -2% | 3%
ClpP mod | -2% | -3% | -1% | -3% | -10% | -27% | -2% | .

[9] NC(=O)c1ccc(NC(=O)c2ccc(COc3ccc(F)cc3)o2)cc1
[10] Cc1ccc(NC2CCCN(C(=O)c3ccc4nccnc4c3)C2)cc1C (configuration not stated)
[11] CCOC(=O)C1=C(COC(=O)CCNS(=O)(=O)c2ccc(NC(C)=O)cc2)NC(=O)NC1C (configuration not stated)
[12] COc1ccc(-c2cnc(SCC(=O)Nc3ccc4c(c3)OCO4)n2Cc2ccco2)cc1
[13] CC(=O)Nc1cccc(NC(=O)CSc2ncc(-c3ccc(Cl)cc3)n2Cc2ccco2)c1
[14] Cc1ccc(NC(=O)NNC(=O)C2CC(c3cccs3)=NO2)cc1 (configuration not stated)
[15] CCC(CC)NC(=O)Nc1cccc(C)c1C
[16] CCC(C)N(CC(=O)Nc1cccc(C)c1C)C(=O)CCl (configuration not stated)
Assay by compound | 9 | 10 | 11 | 12 | 13 | 14 | 15 | 16
Nrf2 ARE act | 0% | 0% | 0% | 8% | -1% | 0% | 0% | 7.9µM*
Nrf2 block | -6% | 1% | -5% | ? | 18µM* | -8% | 0% | ?
TCR activator | 3% | -1% | -1% | 4% | 5% | 7% | 4% | -20%
A549 viability | -13% | -3% | 1% | -13% | -26% | -5% | 16% | 3%
miR-21 FLuc | . | -1% | . | 14% | ? | 0% | -1% | ?
ClpP mod | 4% | 16µM* | . | -3% | 0% | -2% | -1% | .

An excerpt from above in order of length of the SMILES, falling:
[10] Cc1ccc(NC2CCCN(C(=O)c3ccc4nccnc4c3)C2)cc1C (configuration not stated)
[14] Cc1ccc(NC(=O)NNC(=O)C2CC(c3cccs3)=NO2)cc1 (configuration not stated)
[16] CCC(C)N(CC(=O)Nc1cccc(C)c1C)C(=O)CCl (configuration not stated)
Assay by compound | 10 | 14 | 16
Nrf2 ARE act | 0% | 0% | 7.9µM*
Nrf2 block | 1% | -8% | ?
TCR activator | -1% | 7% | -20%
A549 viability | -3% | -5% | 3%
miR-21 FLuc | -1% | 0% | ?
ClpP mod | 16µM* | -2% | .

Going on with the list:
[17] CC(C)N(CC(=O)Nc1ccc(Cl)cc1C(F)(F)F)C(=O)CCl
[18] CNc1snc(C)c1C(=O)OC(C)C(=O)c1ccc(F)cc1 (configuration not stated)
[19] COCCn1c(-c2ccc(SC)cc2)nc2c1c(=O)[nH]c(=O)n2CC(C)C
[20] COCCn1c(-c2ccc(OC(F)(F)C(F)C(F)(F)F)cc2)nc2c1c(=O)[nH]c(=O)n2CC(C)C (configuration not stated)
[21] CCCn1c(=O)[nH]c(=O)c2c1nc(-c1ccc(OC(F)F)c(OC)c1)n2CCOC
[22] CCCn1c(=O)[nH]c(=O)c2c1nc(-c1ccccc1OC(F)F)n2CCOC
[23] Cn1cc([C@]2(O)C(=O)Nc3ccc(F)cc32)c2ccccc21
[24] CCCCCCN1C[C@@H](n2cc(COC(=O)c3ccccc3)nn2)[C@H](O)C[C@@H]1c1ccc(Cl)cc1
Assay by compound | 17 | 18 | 19 | 20 | 21 | 22 | 23 | 24
Nrf2 ARE act | ? | 0% | 5% | 11% | 4% | -1% | . | 5%
Nrf2 block | 13µM* | 21µM* | -20% | 18µM* | 4% | -38% | . | .
TCR activator | 14% | 0% | 1% | -2% | -3% | 4% | . | .
A549 viability | ? | -5% | -3% | -8% | -3% | -6% | . | .
miR-21 FLuc | 12% | . | -13% | 13% | -14% | -17% | . | .
ClpP mod | . | 0% | . | 28µM* | 25µM* | 25µM* | 0% | 0%

[25] Cc1cccc(C)c1-n1ncc(C(=O)NCCCN2CCC(C)CC2)c1C1CCN(C(=O)OC(C)(C)C)CC1
[26] O=C(CSc1ccccn1)Nc1ccc2[nH]c(=O)[nH]c2c1
[27] N#CN1CCC(NS(=O)(=O)c2ccc(F)cc2)CC1
[28] CCC(=O)N1N=C(c2ccc(C)cc2)CC1c1ccco1 (configuration not stated)
[29] CCC(=O)N1N=C(c2c(-c3ccccc3)c3cc(Cl)ccc3[nH]c2=O)CC1c1ccco1 (configuration not stated)
[30] O=C(OCC(=O)N1N=C(c2ccc(Cl)cc2)CC1c1ccco1)c1ccco1 (configuration not stated)
[31] CCC(=O)N1N=C(c2ccc(NS(=O)(=O)c3ccc(C)cc3)cc2)CC1c1ccco1 (configuration not stated)
[32] O=C(OCC(=O)N1N=C(c2ccc(Cl)cc2)CC1c1ccco1)c1ccccc1O (configuration not stated)
Assay by compound | 25 | 26 | 27 | 28 | 29 | 30 | 31 | 32
Nrf2 ARE act | -1% | 0% | . | 4% | 3% | 0%[9.22 µM] | 0% | 1%
Nrf2 block | ? | 4% | ? | 0% | 23µM* | -14% | 18µM* | -11%
TCR activator | . | -2% | . | 5% | 2%[46.1 µM] | 9% | -1% | -4%
A549 viability | 7% | 0% | -2% | -4% | ? | -6% | -19% | -6%
miR-21 FLuc | 2% | . | . | -42% | 23% | -15% | . | -12%
ClpP mod | 2% | -3% | . | -3% | 1% | . | -18% | 35µM*

[33] CC1CN(c2nc3c(c(=O)n(Cc4ccc(Cl)c(Cl)c4)c(=O)n3C)n2C)CC(C)O1 (configuration not stated)
[34] Cc1ccsc1CN(C)c1ncnc2ccc(-c3ccc4c(c3)OCO4)cc12
[35] CN(C)c1ncnc2c1ncn2C1OC(CO)C(O)C1O (configuration not stated)
[36] COc1ccc(C[C@H](N)C(=O)N[C@H]2[C@@H](O)[C@H](n3cnc4c(N(C)C)ncnc43)O[C@@H]2CO)cc1
[37] O=C(NNC(=O)C1CC1c1ccccc1)Nc1ccccc1 (configuration not stated)
[38] COCOc1ccc(-c2oc3c(C/C=C(\C)CCC=C(C)C)ccc(O)c3c(=O)c2OCOC)c(OCOC)c1
[39] COc1ccc(/C(N)=N/OC(=O)Cc2ccc(OC)c(OC)c2)cc1
[40] COc1ccc(C/C(N)=N/OC(=O)C(c2ccccc2)c2ccccc2)cc1OC
Assay by compound | 33 | 34 | 35 | 36 | 37 | 38 | 39 | 40
Nrf2 ARE act | 0% | . | -1% | -2% | 0% | -1% | 1% | 11%
Nrf2 block | 23µM* | 0% | ? | 1.5µM* | -5% | 0% | 15µM* | 23µM*
TCR activator | -6% | . | 0% | 3% | 3%[46.1 µM] | -6% | -5% | 3%
A549 viability | ? | 8% | -24% | 1.5µM* | -3% | -2% | -13% | -7%
miR-21 FLuc | 13% | . | 13% | . | 0% | . | -1% | -4%
ClpP mod | -3% | . | -1% | 0% | 28µM* | -1% | 1% | -1%
